Values quoted from earlier work as cited in patent publication US20260185992A1, “METHODS FOR SELECTING AND TREATING PATIENTS WITH RETINAL DISEASE BASED ON COMPLEMENT PATHWAY HYPERACTIVITY” (Oak Bay Biosciences Inc., priority 2024, published 2026).

System: patients with ocular disease (Geographic Atrophy, AMD)
Conditions: Table 1, ocular disease indication; cited from earlier work

B1: Eculizumab: C5 inhibitor (antibody, chains of the INN, looked up)
heavy: QVQLVQSGAEVKKPGASVKVSCKASGYIFSNYWIQWVRQAPGQGLEWMGEILPGSGSTEYTENFKDRVTMTRDTSTSTVYMELSSLRSEDTAVYYCARYFFGSSPNWYFDVWGQGTLVTVSSASTKGPSVFPLAPCSRSTSESTAALGCLVKDYFPEPVTVSWNSGALTSGVHTFPAVLQSSGLYSLSSVVTVPSSNFGTQTYTCNVDHKPSNTKVDKTVERKCCVECPPCPAPPVAGPSVFLFPPKPKDTLMISRTPEVTCVVVDVSQEDPEVQFNWYVDGVEVHNAKTKPREEQFNSTYRVVSVLTVLHQDWLNGKEYKCKVSNKGLPSSIEKTISKAKGQPREPQVYTLPPSQEEMTKNQVSLTCLVKGFYPSDIAVEWESNGQPENNYKTTPPVLDSDGSFFLYSRLTVDKSRWQEGNVFSCSVMHEALHNHYTQKSLSLSLG
light: DIQMTQSPSSLSASVGDRVTITCGASENIYGALNWYQQKPGKAPKLLIYGATNLADGVPSRFSGSGSGTDFTLTISSLQPEDFATYYCQNVLNTPLTFGQGTKVEIKRTVAAPSVFIFPPSDEQLKSGTASVVCLLNNFYPREAKVQWKVDNALQSGNSQESVTEQDSKDSTYSLSSTLTLSKADYEKHKVYACEVTHQGLSSPVTKSFNRGEC
For B1, the “Status (clinical trial outcome)” value is listed as “Phase I/II Study; No”.
